From US20120129872A1, “FUSED HETEROARYL INHIBITORS OF PRO-MATRIX METALLOPROTEINASE ACTIVATION” (priority 2010, published 2012)

Sequences of proteins named here, by UniProt entry; tags and fusion partners are left off. A line that says so, or that is headed by a name, gives the form on record, which may keep a tag or linker. Residues count along the entry.
UniProt P14780, 20-707 R574P limits assumed: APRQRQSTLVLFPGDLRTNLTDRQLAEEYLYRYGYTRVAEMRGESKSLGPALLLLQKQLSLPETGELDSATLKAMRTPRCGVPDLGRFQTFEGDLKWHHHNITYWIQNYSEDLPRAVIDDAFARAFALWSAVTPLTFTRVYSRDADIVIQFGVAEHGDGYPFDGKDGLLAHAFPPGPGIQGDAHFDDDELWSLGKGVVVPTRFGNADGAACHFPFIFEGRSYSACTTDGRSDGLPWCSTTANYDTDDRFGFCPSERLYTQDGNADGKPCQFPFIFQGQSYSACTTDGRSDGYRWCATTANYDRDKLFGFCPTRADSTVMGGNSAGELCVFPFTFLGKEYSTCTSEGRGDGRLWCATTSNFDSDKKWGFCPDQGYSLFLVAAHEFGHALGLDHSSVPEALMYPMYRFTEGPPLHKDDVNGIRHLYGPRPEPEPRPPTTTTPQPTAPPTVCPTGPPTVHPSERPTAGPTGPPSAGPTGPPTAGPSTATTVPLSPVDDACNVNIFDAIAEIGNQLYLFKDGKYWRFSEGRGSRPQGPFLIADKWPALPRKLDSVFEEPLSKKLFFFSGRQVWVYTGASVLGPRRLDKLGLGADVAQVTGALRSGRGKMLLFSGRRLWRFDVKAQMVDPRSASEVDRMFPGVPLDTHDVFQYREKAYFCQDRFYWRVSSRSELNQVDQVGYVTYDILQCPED
UniProt P14780, 20-444 with tags or gaps DEL216-390 limits assumed: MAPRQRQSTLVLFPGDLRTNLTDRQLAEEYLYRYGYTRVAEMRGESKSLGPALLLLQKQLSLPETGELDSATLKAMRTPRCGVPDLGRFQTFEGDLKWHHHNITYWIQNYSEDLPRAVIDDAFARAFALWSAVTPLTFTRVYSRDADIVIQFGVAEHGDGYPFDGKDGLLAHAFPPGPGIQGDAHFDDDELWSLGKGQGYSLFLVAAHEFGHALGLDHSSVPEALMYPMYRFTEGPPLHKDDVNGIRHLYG
UniProt P14780, 67-444 with tags or gaps DEL216-390 limits assumed: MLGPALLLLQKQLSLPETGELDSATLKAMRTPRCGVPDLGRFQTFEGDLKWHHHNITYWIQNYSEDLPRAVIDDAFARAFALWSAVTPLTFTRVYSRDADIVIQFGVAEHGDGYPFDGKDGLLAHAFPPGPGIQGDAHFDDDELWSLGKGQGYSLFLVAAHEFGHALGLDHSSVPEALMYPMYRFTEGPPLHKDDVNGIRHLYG

Assays:
[1] = target: proMMP9(67-444;ΔFnII) (SEQ ID NO:5) (Homo sapiens, UniProt P14780, DEL216-390); test: ThermoFluor binding assay with proMMP9(67-444;ΔFnII); settings: read-out: proMMP9(67-444;ΔFnII) (SEQ ID NO: 5) binding
Description: (§1) The ThermoFluor® (TF) assay is a 384-well plate-based binding assay that measures thermal stability of proteins (Biomol Screen 2001, 6, 429-40; Biochemistry 2005, 44, 5258-66). The experiments were carried out using instruments available from Johnson & Johnson Pharmaceutical Research & Development, LLC. TF dye used in all experiments was […] (1,8-ANS) (Invitrogen: A-47).
(§2) Compounds were arranged in a pre-dispensed plate (Greiner Bio-one: 781280), wherein compounds were serially diluted in 100% DMSO across 11 columns within a series. Columns 12 and 24 were used as DMSO reference and contained no compound. […]
(§3) Assay plates were robotically loaded onto a thermostatically controlled PCR-type thermal block and then heated from 40 to 90° C. at a ramp-rate of 1° C./min for all experiments. Fluorescence was measured by continuous illumination with UV light (Hamamatsu LC6) supplied via fiber optics and filtered through a band-pass filter (380-400 nm; >60D cutoff). Fluorescence emission of the entire 384-well plate was detected by measuring light intensity using a CCD camera (Sensys, Roper Scientific) filtered to detect 500±25 nm, resulting in simultaneous and independent readings of all 384 wells. […]

[2] = target: full-length proMMP9(1-707) (SEQ ID NO:1), activation by catalytic MMP3 (Homo sapiens, UniProt P14780, R574P); test: proMMP9/MMP3 P126 Activation Assay; settings: read-out: proMMP9/MMP3 P126 Activation Assay, IC50
Description: proMMP9/MMP3 P126 Activation Assay
Compounds were assessed for inhibition of proMMP9 activation by catalytic MMP3, MMP3(100-265) (SEQ ID NO:8) using full-length proMMP9(1-707) (SEQ ID NO:1) purified from HEK293 cells and a peptide (Mca-PLGL-Dpa-AR-NH2, BioMol P-126) that fluoresces upon cleavage by catalytic MMP9. The assay buffer employed was 50 mM Hepes, pH 7.5, 10 mM CaCl2, 0.05% Brij-35. DMSO was included at a final concentration of 2%, arising from the test compound addition. On the day of assay, proMMP9(1-707) (SEQ ID NO:1) purified from HEK293 cells and MMP3(100-265) (SEQ ID NO:8) were diluted to 400 nM in assay buffer. The reaction volume was 50 μL. In 96-well black plates (Costar 3915), 44 μL of assay buffer was mixed with 1.0 μL of test compound, 2.5 μL of 400 nM proMMP9(1-707) (SEQ ID NO:1) purified from HEK293 cells and the reaction was initiated with 2.5 μL of 400 nM MMP3(100-265) (SEQ ID NO:8).The plate was sealed and incubated for 80 min at 37° C. […]

[3] = target: proMMP9(20-445;ΔFnII) (SEQ ID NO:6) (Homo sapiens, UniProt P14780, DEL216-390); test: ThermoFluor binding assay with proMMP9(20-445;ΔFnII); settings: read-out: proMMP9(20-445;ΔFnII) (SEQ ID NO: 6) binding
Description: as §1, §2, §3

## Cn1cnc2cc(-c3csc(Nc4cc(C(N)=O)ccc4OC(F)(F)F)n3)ccc21
[1]
  Kd: 2600 nM
[2]
  IC50: 710 nM
[3]
  Kd: 520 nM
